Earlier results on two compounds are cited in US4563479A, “Synergistic radiation protective pharmaceutical compositions” (Chinoin Gyogyszer es Vegyeszeti Termekek Gyar RT, priority 1979, dated 1986).

Structures can show the parent of a compound that is named as a salt. Where two headings read alike, the source gives them in different places.

For this data set the following is noted: LD50 p.o. / radiation protective dose, cited from earlier work.

Take `N=C(N)SCCN` [aminoethyl-isothiuronium-bromide-hydrobromide]: the Therapeutic index is reported as 1.20.

As to `N=C(N)SCCN` [AET, aminoethyl-isothiuronium-chloride-hydrochloride], for the setting “listed as aminoethyl-isothiuronium-chloride-hydrochloride”, the Therapeutic index is 1.78.
